Apparent affinities of Ab-14 variants for a coronavirus HR2 peptide

Data: MIT Lincoln Laboratory AlphaSeq set, Engelhart et al. 2022, doi:10.1038/s41597-022-01779-4, as distributed in FLAb.

Target peptide (SARS-CoV-2 spike, HR2 region): PDVDLGDISGINAS

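Library AAYL49 holds single substitutions and randomly drawn double and triple substitutions in the CDRs. The assay is AlphaSeq: two haploid yeast populations carry antibody and antigen on their surface. Mating (16 h, 30 °C) was followed by selection of diploids and sequencing of their barcodes. The ratio of observed to expected reads was calibrated, replicate by replicate, on BCL2-family standards whose Kd was known from biolayer interferometry. Each pool was mated in three replicate cultures.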

Parent scFv Ab-14: VH joined to VL by a (GGGGS)3 linker. Changes lie in the heavy chain CDRs alone.
VH: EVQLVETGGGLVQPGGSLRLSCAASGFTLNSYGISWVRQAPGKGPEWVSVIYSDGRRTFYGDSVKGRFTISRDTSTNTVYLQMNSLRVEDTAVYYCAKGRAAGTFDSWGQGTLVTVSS
VL: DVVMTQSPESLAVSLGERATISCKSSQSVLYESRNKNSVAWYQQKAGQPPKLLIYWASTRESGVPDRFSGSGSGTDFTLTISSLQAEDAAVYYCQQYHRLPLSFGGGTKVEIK

Positions count from residue 1 of the parent VH; S35W puts W in place of S.
Affinities are written as log10 Kd with Kd in nM; a lower number is a better binder.
The mean shown is taken over the replicates in which the pair was detected.
A pair that was not seen in any replicate is written "not detected"; this usually means weak binding, but a binder can also be missed.
In this assay the parent's reference entry averaged 0.65; its copy inside this library read 4.11 (one replicate of three).
Nonspecific signal, from three strains lacking the peptide, appeared in 15% of pairings of library AAYL49, centred on 4.06 (5% of these signals below 2.83); values are not corrected for it.

mean log10 Kd (nM),detected,changes
3.63,1 of 3,S35W+S63M+A101F
2.71,2 of 3,D62S+V64G
5.34,1 of 3,N30M+Y32L+G61S
not detected,0 of 3,L29P+F59Y+S63P
not detected,0 of 3,L29G+S63A+G103N
not detected,0 of 3,V50M+Y60A+K65S
not detected,0 of 3,N30Q+D54C+G103E
2.31,3 of 3,I51A+F59N+T104W
not detected,0 of 3,G55H+F59R+S107A
not detected,0 of 3,Y32R+F59R+G61P
3.21,1 of 3,Y52G+G55V+V64L
0.81,3 of 3,F59Y+R100E
not detected,0 of 3,L29C+I34F+G55I
3.30,3 of 3,R56A+V64A+A101H
not detected,0 of 3,T58G+F59Q+S63W
4.47,2 of 3,L29D+R57P
not detected,0 of 3,N30Q+G33F+D106Q
not detected,0 of 3,N30M+Y32P+S107A
not detected,0 of 3,N30F+R56E+R100W
1.98,3 of 3,D62Q+D106Y
not detected,0 of 3,S35M+D54W+G55C
4.21,2 of 3,S31F+Y60Q+D62A
not detected,0 of 3,S31G+V50P+S107A
4.38,3 of 3,L29G+A101R
3.13,3 of 3,Y32A+A102Y+G103R
not detected,0 of 3,Y52P+G55T+D106I
not detected,0 of 3,N30A+V64I+G103R
3.54,2 of 3,T58F+S63K+K65N
4.00,2 of 3,N30D+R56H+A102F
not detected,0 of 3,F27Y+I51W
not detected,0 of 3,S35I+T104G+F105R
not detected,0 of 3,T28F+Y60H+A101M
not detected,0 of 3,G55W+D106N+S107G
3.87,2 of 3,S35Y+T58G+T104L
4.22,1 of 3,T28W+R56M+K65G
3.89,1 of 3,R57A+T58G+G99D
not detected,0 of 3,T28A+G99E
4.37,2 of 3,F27A+Y52T+G55F
not detected,0 of 3,G26P+T58S+G103H
not detected,0 of 3,Y32Q+I34W+S35P
2.24,3 of 3,G26M+S31E+F59G
not detected,0 of 3,L29S+Y32N+R100F
2.80,1 of 3,G55R+D62I+S63G
not detected,0 of 3,G26V+I34R+I51A
4.79,2 of 3,R57I+A101C
not detected,0 of 3,G26Y+S31G+S35Q
1.67,3 of 3,N30D+F59W+D106V
not detected,0 of 3,F27V+V50P+F105C
not detected,0 of 3,G33C+I51P+R57D
2.27,3 of 3,S53W+F59D+A102Y
not detected,0 of 3,I51N+G55D+Y60M
3.29,2 of 3,S35Q+T104S
not detected,0 of 3,I51F+Y60W+D62N
not detected,0 of 3,L29V+Y60H+V64S
4.93,1 of 3,N30T+F105R
not detected,0 of 3,N30L+V50G+F105M
1.93,3 of 3,N30S+G61V+K65N
5.86,1 of 3,G26I+N30T+R57T
3.27,1 of 3,F27T+Y32M+R100Y
not detected,0 of 3,G33E+I34S+R56L
1.52,3 of 3,N30K+S53G+G61I
not detected,0 of 3,D62Y+A101D+D106T

3 of these entries, quoted again:

| changes | mean log10 Kd (nM) | detected |
|---|---|---|
| N30L+V50G+F105M | not detected | 0 of 3 |
| L29S+Y32N+R100F | not detected | 0 of 3 |
| T58F+S63K+K65N | 3.54 | 2 of 3 |